Compound activity (PubChem BioAssay)
Yeast UUG start: yeast start codon fidelity modulation. S. cerevisiae UUG-firefly luciferase reporter, luminescence/redox ratio. activity score, % at 18.7 µM. 0.13% of 350,000 active;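 active means replicate mean at a twofold rise or more, about +100% in these data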;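 further: firefly luciferase made from a UUG start codon reports start codon fidelity; reporter light over untreated wells divided by growth signal over untreated wells; some hits fall short of that in this replicate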
RAD52 inh: inhibitors of human RAD52 DNA annealing. recombinant RAD52 DNA annealing, FRET fluorescence. inhibition, % at 18.7 µM. 360,000 tested, 0.46% active. AID 651710;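 active = every replicate showing at least 50% inhibition; inconclusive = mean inhibition at least 50% but not in every replicate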
RAD54 inh: inhibitors of human RAD54 branch migration | AID 602329 | Q92698 | RAD54 Holliday junction branch migration, FAM/BHQ fluorescence | 360,000 tested, 0.14% active | inhibition, % at 10.4 µM;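 active = mean normalized replicate activity at least 40 and at least half of replicates scoring 40 or more; inconclusive = only one of the two criteria met; inactive = mean below 40 and under half of replicates reaching 40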;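 also: 0% = median of neutral control wells and 100% = median of positive control wells; inhibitors cause a drop in the FAM fluorescence signal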
E-sel inducer: induces E-selectin expression in human endothelial cells. HUVEC E-selectin immunofluorescence imaging; normalized: neutral wells 0, TNF-alpha wells 100. activation, % at 7.58 µM. 260,000 tested, 0.37% active. AID 686992;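 active = mean E-selectin-positive cell signal at least 10% of the positive control, reached in at least 60% of replicates, without over 20% cell loss; inconclusive = no rule given, readout overlaps actives, possibly toxicity-flagged; inactive = the rest, including those meeting only one limit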
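System: HUVEC, human umbilical vein endothelial cells; quantity: 3,000 cells/well; buffer or medium: EGM-2 medium, gelatin-coated wells; dosing: single-point compound dose; detection: immunofluorescence imaging; evaluation: % PE-positive cells; benchmarks: TNF-alpha, DMSO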
AF4-AF9 inh: blocks AF4 peptide binding to human AF9; AlphaScreen, biotin-AF4 peptide binding to FLAG-AF9; inhibition, % at 10 µM; 350,000 tested, 0.47% active;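 active = every replicate reaching a set inhibition limit, whatever the replicate mean, cut at about 25% in these data; inconclusive = mean inhibition reaches that limit but some replicates miss it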;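 also: 0% = plate neutral control median and 100% = total signal loss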
SIRT5 inh: blocks human SIRT5 desuccinylation of peptide; Q9NXA8; Purified SirT5, succinyl-peptide AMC, trypsin-coupled fluorescence; inhibition, % at 15 µM; 330,000 tested, 1.1% active; AID 652115; in the data active = inhibition above about 15%; inconclusive = no clear call, values can overlap the other calls
Numbers without * were called inactive; ? = inconclusive; · = no result given. Compounds with a hit are over-represented: about 1.8% of the library has one in this group of screens.

1) C[C@H](CO)N1C[C@H](C)[C@H](CN(C)Cc2ccccc2)Oc2cc(-c3ccccc3)ccc2S1(=O)=O
2) Cn1cccc1/C=N/NC(=O)c1cc(-c2cccs2)nc2ccccc12
3) N[C@@H](CO)c1nnc([C@H](CCC(=O)O)NC(=O)C2CCNCC2)o1
4) NCCCC[C@H](N)c1nnc([C@H](CCC(=O)O)NC(=O)C2CCNCC2)o1
5) CCN1[C@@H]2c3ccc(-c4ccc(F)cc4)c(=O)n3C[C@@H]2[C@@H](CO)[C@@H]1C(=O)OC
6) O=C(C[C@@H]1C[C@@H]2c3cc(NC(=O)C4CCC4)ccc3O[C@@H]2[C@H](CO)O1)NCc1cccc(F)c1
7) O=C(COC(=O)CC1CC2CCC1C2)Nc1ccc(F)cc1 (stereo not given)
8) Cc1noc(C)c1S(=O)(=O)Nc1ccc2c(c1)C(=O)N([C@H](C)CO)C[C@@H](C)[C@H](CN(C)Cc1ccc(C(F)(F)F)cc1)OCCCC[C@@H](C)O2

screen / no.,1,2,3,4,5,6,7,8
Yeast UUG start,4.8,·,-11.0,-15.1,·,·,·,·
RAD52 inh,·,-6.5,1.2,3.9,-9.2,6.7,-14.4,3.6
RAD54 inh,·,·,-11.7,33.6,-17.5,5.3,·,-6.2
E-sel inducer,-2.0,0.3,-0.1,-0.1,-0.1,0.3,0.6,-0.3
AF4-AF9 inh,·,32.5*,-2.1,28.1*,-0.5,4.1,-9.6,3.2
SIRT5 inh,·,·,0.1,-5.7,-0.5,3.2,111.9*,23.6*

9) Cc1noc(C)c1S(=O)(=O)Nc1ccc2c(c1)C(=O)N([C@@H](C)CO)C[C@@H](C)[C@H](CN(C)Cc1ccc(C(F)(F)F)cc1)OCCCC[C@@H](C)O2
10) Cc1noc(C)c1S(=O)(=O)Nc1ccc2c(c1)C(=O)N([C@H](C)CO)C[C@@H](C)[C@@H](CN(C)Cc1ccc(C(F)(F)F)cc1)OCCCC[C@H](C)O2
11) Cc1noc(C)c1S(=O)(=O)Nc1ccc2c(c1)C(=O)N([C@H](C)CO)C[C@@H](C)[C@H](CN(C)Cc1ccc(C(F)(F)F)cc1)OCCCC[C@H](C)O2
12) CCC(=O)Nc1ccc2c(c1)OC[C@@H](C)N(C(C)=O)C[C@H](C)[C@H](OC)CN(C)C2=O
13) CCC(=O)NC[C@@H]1[C@H](c2ccc(C3=CCCC3)cc2)[C@@H](CO)N1C(=O)C1CC1
14) O=C(N[C@@H]1CC[C@H](CCNC(=O)C2CCCC2)O[C@H]1CO)c1ccccn1
15) Cc1ccc(S(=O)(=O)N(C)C[C@H]2Oc3ccc(NC(=O)Nc4cccc5ccccc45)cc3C(=O)N([C@@H](C)CO)C[C@@H]2C)cc1
16) CCCN1C[C@H](C)[C@@H](OC)CN(C)C(=O)c2ccc(NC(=O)c3cccc(F)c3)cc2OC[C@H]1C

screen / no.,9,10,11,12,13,14,15,16
Yeast UUG start,·,·,·,-2.2,-6.5,12.4,·,4.9
RAD52 inh,0.1,24.5,26.8,0.6,·,-13.1,·,3.3
RAD54 inh,-4.3,-5.0,1.6,3.8,1.5,7.8,·,1.0
E-sel inducer,0.3,-0.1,0.4,0.1,-0.2,0.0,0.2,0.1
AF4-AF9 inh,0.9,-6.2,2.8,-2.6,·,-1.5,·,45.4*
SIRT5 inh,16.9*,14.7,17.7*,-2.5,·,2.3,·,7.6

17) CCCN1C[C@H](C)[C@@H](OC)CN(C)C(=O)c2ccc(NC(=O)c3cccc(F)c3)cc2OC[C@@H]1C
18) CCCN1C[C@H](C)[C@H](OC)CN(C)C(=O)c2ccc(NC(=O)c3cccc(F)c3)cc2OC[C@H]1C
19) CCCN1C[C@@H](C)[C@H](OC)CN(C)C(=O)c2ccc(NC(=O)c3cccc(F)c3)cc2OC[C@H]1C
20) O=C(NCCCN=C1NS(=O)(=O)c2ccccc21)c1ccco1
21) O=C(NCCN=C1NS(=O)(=O)c2ccccc21)c1ccco1
22) N#Cc1ccccc1COC(=O)CCCC1=NS(=O)(=O)c2ccccc2N1
23) Cc1cccc(NS(=O)(=O)c2csc(C(N)=O)c2)c1
24) Cc1cccc(NS(=O)(=O)c2csc(C(N)=O)c2)c1C

screen / no.,17,18,19,20,21,22,23,24
Yeast UUG start,5.1,10.8,11.3,-28.6,-20.3,-16.0,-1.4,-16.4
RAD52 inh,-86.1,5.7,-21.9,-1.8,5.5,-11.1,3.7,-4.3
RAD54 inh,-10.0,2.3,3.1,-4.1,-7.2,1.4,11.1,-8.7
E-sel inducer,0.0,0.0,-0.4,·,·,0.9,0.1,50.0*
AF4-AF9 inh,39.4*,38.9*,?,1.5,2.4,1.1,-2.4,0.5
SIRT5 inh,4.1,5.5,6.4,0.1,20.0*,31.9*,-1.1,-3.4

25) N#Cc1ccc(-c2ccc3c(c2)[C@H]2[C@H](CCN2Cc2cncnc2)[C@H](CO)N3)cc1
26) COc1ccc(N=Nc2c(C)[nH][nH]c2=O)cc1
27) COc1ccc(N=Nc2c(C)[nH]c3ccccc23)cc1
28) Cc1cc(S(=O)(=O)N2CCN=C2c2ccccc2)c(C)cc1Cl
29) Cc1cc(C)c(S(=O)(=O)N2CCN=C2c2ccccc2)c(C)c1
30) O=C(N/N=C/c1ccc([N+](=O)[O-])o1)c1ccncc1
31) O=C(N/N=C\c1ccc([N+](=O)[O-])o1)c1cncc(Br)c1
32) O=C(C[C@@H]1C[C@H]2c3cc(NC(=O)C4CCC4)ccc3O[C@H]2[C@@H](CO)O1)NCc1ccncc1

screen / no.,25,26,27,28,29,30,31,32
Yeast UUG start,-12.5,·,-4.6,·,·,-0.4,-5.5,-7.6
RAD52 inh,·,-30.3,-10.2,-6.4,·,-3.5,-20.4,-16.5
RAD54 inh,-4.8,·,-6.8,·,·,-3.0,0.2,1.3
E-sel inducer,0.3,·,·,0.0,-0.1,-0.2,0.0,-0.1
AF4-AF9 inh,·,1.4,25.9*,3.3,·,-0.1,-6.5,-1.9
SIRT5 inh,·,5.8,·,20.9*,·,1.7,21.3*,-2.7

3 of the compounds above, with values under each structure.
Values run as follows: Yeast UUG start	RAD52 inh	RAD54 inh	E-sel inducer	AF4-AF9 inh	SIRT5 inh
2	Cn1cccc1/C=N/NC(=O)c1cc(-c2cccs2)nc2ccccc12
 : ·	-6.5	·	0.3	32.5*	·
3	N[C@@H](CO)c1nnc([C@H](CCC(=O)O)NC(=O)C2CCNCC2)o1
 : -11.0	1.2	-11.7	-0.1	-2.1	0.1
10	Cc1noc(C)c1S(=O)(=O)Nc1ccc2c(c1)C(=O)N([C@H](C)CO)C[C@@H](C)[C@@H](CN(C)Cc1ccc(C(F)(F)F)cc1)OCCCC[C@H](C)O2
 : ·	24.5	-5.0	-0.1	-6.2	14.7

The results go on:
33) CCCCC(CC)C(=O)Oc1ccc(O)c(C(C)(C)C)c1 (stereo not given)
34) C[C@@H]1CCCCO[C@H](CN(C)Cc2ccc(C(F)(F)F)cc2)[C@H](C)CN([C@H](C)CO)C(=O)c2cc(NS(=O)(=O)c3ccc(F)cc3)ccc2O1
35) C[C@H]1CCCCO[C@@H](CN(C)Cc2ccc(C(F)(F)F)cc2)[C@@H](C)CN([C@@H](C)CO)C(=O)c2cc(NS(=O)(=O)c3ccc(F)cc3)ccc2O1
36) C[C@@H]1CCCCO[C@H](CN(C)Cc2ccc(C(F)(F)F)cc2)[C@@H](C)CN([C@@H](C)CO)C(=O)c2cc(NS(=O)(=O)c3ccc(F)cc3)ccc2O1
37) C[C@@H]1CCCCO[C@H](CN(C)Cc2ccc(C(=O)Nc3ccccc3N)cc2)[C@@H](C)CN([C@H](C)CO)C(=O)c2cc(NS(=O)(=O)c3ccc(F)cc3)ccc2O1
38) COc1ccc(NC(=O)Nc2ccc3c(c2)C(=O)N([C@H](C)CO)C[C@H](C)[C@@H](CN(C)C(=O)C2CCCCC2)OCCCC[C@@H](C)O3)cc1
39) C[C@H](CO)N1C[C@H](C)[C@H](CN(C)Cc2ccc(C(F)(F)F)cc2)OCCCC[C@H](C)Oc2ccc(NS(=O)(=O)c3ccc(F)cc3)cc2C1=O

screen / no.,33,34,35,36,37,38,39
Yeast UUG start,0.0,20.9,2.7,12.9,4.4,-4.3,23.4
RAD52 inh,11.7,-17.6,-12.4,·,58.8*,5.3,-11.9
RAD54 inh,3.2,4.3,10.4,-10.3,2.3,6.1,1.8
E-sel inducer,?,0.0,0.0,1.5,0.5,0.1,-0.1
AF4-AF9 inh,-1.8,-1.3,1.2,0.1,-4.5,4.6,-0.2
SIRT5 inh,19.2*,16.7*,20.4*,19.5*,0.2,0.2,17.4*
